From patent US6528656B1, “Linear or cyclic aminophosphonates as pH markers in phosphorus 31 NMR spectroscopy” (Centre National de la Recherche Scientifique (CNRS), priority 1998, dated 2003)

Assay: physchem
Format: physicochemical
For `CCOP(=O)(OCC)C1(C)CCCN1` (centres unmarked) [Compound 1, 2-methyl-2-diethoxyphosphorylpyrrolidine], the pKa was 6.75. For `CCOP(=O)(OCC)C1(c2ccccc2)CCCN1` (centres unmarked) [Compound 5, 2-phenyl-2-diethoxyphosphorylpyrrolidine], the pKa was 5.73. `CCCCNC(C)CP(=O)(OCC)OCC` (centres unmarked) [Compound 8, N-[(1-methyl-2-diethoxyphosphoryl)ethyl]-N-n-butylamine] showed a pKa of 8.64. Work on `CCCNC(C)(c1ccccc1)P(=O)(OCC)OCC` (centres unmarked) [Compound 6, N-propyl-N-[1-phenyl-1-diethoxyphosphorylethyl]amine] yielded a pKa of 5.67. Work on `CCCNC(C)(C)P(=O)(OCC)OCC` [Compound 7, 2-propylamino-2-diethoxyphosphorylpropane] yielded a pKa of 6.77.
